# Permeability data for macrocyclic peptides

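The data file gives no further conditions (lipid, pH, time, direction or concentration), and values from different papers need not be comparable. The list need not hold all peptides of the study. Entries at the database's floor value (log10 P of -10) are not listed.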

PAMPA is the parallel artificial membrane permeability assay, which has no cells and reads passive diffusion. P is given in units of 10^-6 cm/s (from log10 values with two decimals); larger means faster passage.

CC(=O)N1CCC[C@H]1C(=O)N[C@@H]1C(=O)N[C@H](CC(C)C)C(=O)N(C)[C@@H](CC(C)C)C(=O)N[C@@H](CC(C)C)C(=O)N(C)[C@@H](CC(C)C)C(=O)N(C)[C@@H](C)C(=O)N[C@@H](CC(C)C)C(=O)N2CCC[C@@H]2C(=O)O[C@@H]1C has PAMPA 4.8 × 10^-6 cm/s.
CC(=O)N1CCC[C@H]1C(=O)N[C@@H]1C(=O)N(C)[C@H](CC(C)C)C(=O)N[C@H](CC(C)C)C(=O)N[C@H](CC(C)C)C(=O)N[C@H](CC(C)C)C(=O)N[C@H](C)C(=O)N[C@@H](CC(C)C)C(=O)N2CCC[C@@H]2C(=O)O[C@@H]1C has PAMPA 0.17 × 10^-6 cm/s.
CC(=O)N1CCC[C@H]1C(=O)N(C)[C@H](CC(C)C)C(=O)N[C@@H]1C(=O)N[C@H](CC(C)C)C(=O)N(C)[C@H](CC(C)C)C(=O)N[C@H](CC(C)C)C(=O)N(C)[C@H](C)C(=O)N[C@@H](CC(C)C)C(=O)N2CCC[C@H]2C(=O)O[C@@H]1C has PAMPA 4 × 10^-6 cm/s.
CC(=O)N1CCC[C@@H]1C(=O)N(C)[C@@H](CC(C)C)C(=O)N[C@@H]1C(=O)N[C@H](CC(C)C)C(=O)N[C@H](CC(C)C)C(=O)N(C)[C@H](CC(C)C)C(=O)N(C)[C@H](C)C(=O)N[C@H](CC(C)C)C(=O)N2CCC[C@@H]2C(=O)O[C@@H]1C has PAMPA 1.5 × 10^-6 cm/s.
CC(=O)N1CCC[C@H]1C(=O)N(C)[C@@H](CC(C)C)C(=O)N[C@@H]1C(=O)N[C@H](CC(C)C)C(=O)N[C@@H](CC(C)C)C(=O)N[C@H](CC(C)C)C(=O)N[C@H](C)C(=O)N[C@@H](CC(C)C)C(=O)N2CCC[C@@H]2C(=O)O[C@@H]1C has PAMPA 0.13 × 10^-6 cm/s.
CC(=O)N1CCC[C@@H]1C(=O)N(C)[C@H](CC(C)C)C(=O)N[C@@H]1C(=O)N(C)[C@H](CC(C)C)C(=O)N[C@@H](CC(C)C)C(=O)N(C)[C@@H](CC(C)C)C(=O)N(C)[C@H](C)C(=O)N[C@@H](CC(C)C)C(=O)N2CCC[C@@H]2C(=O)O[C@@H]1C has PAMPA 2.3 × 10^-6 cm/s.
CC(=O)N1CCC[C@@H]1C(=O)N(C)[C@H](CC(C)C)C(=O)N[C@@H]1C(=O)N[C@@H](CC(C)C)C(=O)N[C@@H](CC(C)C)C(=O)N(C)[C@@H](CC(C)C)C(=O)N[C@@H](C)C(=O)N[C@H](CC(C)C)C(=O)N2CCC[C@@H]2C(=O)O[C@@H]1C has PAMPA 0.14 × 10^-6 cm/s.
CC(=O)N1CCC[C@H]1C(=O)N(C)[C@@H](CC(C)C)C(=O)N[C@@H]1C(=O)N[C@H](CC(C)C)C(=O)N[C@@H](CC(C)C)C(=O)N[C@H](CC(C)C)C(=O)N[C@@H](C)C(=O)N[C@H](CC(C)C)C(=O)N2CCC[C@H]2C(=O)O[C@@H]1C has PAMPA 0.21 × 10^-6 cm/s.
CC(=O)N1CCC[C@@H]1C(=O)N(C)[C@@H](CC(C)C)C(=O)N[C@@H]1C(=O)N[C@@H](CC(C)C)C(=O)N[C@@H](CC(C)C)C(=O)N(C)[C@@H](CC(C)C)C(=O)N(C)[C@H](C)C(=O)N[C@H](CC(C)C)C(=O)N2CCC[C@H]2C(=O)O[C@@H]1C has PAMPA 0.66 × 10^-6 cm/s.
CC(=O)N[C@@H]1C(=O)N2CCC[C@H]2C(=O)N(C)[C@H](CC(C)C)C(=O)N[C@H](CC(C)C)C(=O)N[C@@H](CC(C)C)C(=O)N[C@@H](CC(C)C)C(=O)N[C@H](C)C(=O)N[C@@H](CC(C)C)C(=O)N2CCC[C@@H]2C(=O)O[C@@H]1C has PAMPA 0.054 × 10^-6 cm/s.
CC(=O)N1CCC[C@@H]1C(=O)N(C)[C@H](CC(C)C)C(=O)N[C@@H]1C(=O)N[C@@H](CC(C)C)C(=O)N[C@@H](CC(C)C)C(=O)N(C)[C@H](CC(C)C)C(=O)N[C@@H](C)C(=O)N[C@@H](CC(C)C)C(=O)N2CCC[C@H]2C(=O)O[C@@H]1C has PAMPA 0.23 × 10^-6 cm/s.
CC(=O)N1CCC[C@H]1C(=O)N(C)[C@@H](CC(C)C)C(=O)N[C@@H]1C(=O)N(C)[C@H](CC(C)C)C(=O)N[C@H](CC(C)C)C(=O)N(C)[C@H](CC(C)C)C(=O)N[C@@H](C)C(=O)N[C@H](CC(C)C)C(=O)N2CCC[C@@H]2C(=O)O[C@@H]1C has PAMPA 0.18 × 10^-6 cm/s.
CC(=O)N1CCC[C@@H]1C(=O)N(C)[C@@H](CC(C)C)C(=O)N[C@@H]1C(=O)N(C)[C@H](CC(C)C)C(=O)N[C@H](CC(C)C)C(=O)N[C@H](CC(C)C)C(=O)N(C)[C@@H](C)C(=O)N[C@H](CC(C)C)C(=O)N2CCC[C@@H]2C(=O)O[C@@H]1C has PAMPA 0.95 × 10^-6 cm/s.
CC(=O)N1CCC[C@@H]1C(=O)N(C)[C@H](CC(C)C)C(=O)N[C@@H]1C(=O)N[C@H](CC(C)C)C(=O)N[C@H](CC(C)C)C(=O)N(C)[C@@H](CC(C)C)C(=O)N(C)[C@@H](C)C(=O)N[C@@H](CC(C)C)C(=O)N2CCC[C@@H]2C(=O)O[C@@H]1C has PAMPA 5.6 × 10^-6 cm/s.
CC(=O)N1CCC[C@H]1C(=O)N(C)[C@H](CC(C)C)C(=O)N[C@@H]1C(=O)N(C)[C@@H](CC(C)C)C(=O)N[C@@H](CC(C)C)C(=O)N(C)[C@H](CC(C)C)C(=O)N(C)[C@H](C)C(=O)N[C@@H](CC(C)C)C(=O)N2CCC[C@H]2C(=O)O[C@@H]1C has PAMPA 7.4 × 10^-6 cm/s.
CC(=O)N1CCC[C@H]1C(=O)N(C)[C@@H](CC(C)C)C(=O)N[C@@H]1C(=O)N[C@H](CC(C)C)C(=O)N[C@@H](CC(C)C)C(=O)N(C)[C@H](CC(C)C)C(=O)N(C)[C@@H](C)C(=O)N[C@H](CC(C)C)C(=O)N2CCC[C@H]2C(=O)O[C@@H]1C has PAMPA 5.6 × 10^-6 cm/s.
CC(=O)N1CCC[C@H]1C(=O)N[C@@H]1C(=O)N[C@H](CC(C)C)C(=O)N[C@@H](CC(C)C)C(=O)N[C@@H](CC(C)C)C(=O)N[C@H](CC(C)C)C(=O)N[C@@H](C)C(=O)N[C@@H](CC(C)C)C(=O)N2CCC[C@@H]2C(=O)O[C@@H]1C has PAMPA 0.89 × 10^-6 cm/s.
CC(=O)N1CCC[C@@H]1C(=O)N(C)[C@@H](CC(C)C)C(=O)N[C@@H]1C(=O)N[C@H](CC(C)C)C(=O)N[C@H](CC(C)C)C(=O)N[C@@H](CC(C)C)C(=O)N[C@@H](C)C(=O)N[C@H](CC(C)C)C(=O)N2CCC[C@H]2C(=O)O[C@@H]1C has PAMPA 0.14 × 10^-6 cm/s.
CC(=O)N1CCC[C@H]1C(=O)N[C@@H]1C(=O)N(C)[C@H](CC(C)C)C(=O)N[C@H](CC(C)C)C(=O)N[C@@H](CC(C)C)C(=O)N(C)[C@H](CC(C)C)C(=O)N(C)[C@@H](C)C(=O)N[C@@H](CC(C)C)C(=O)N2CCC[C@@H]2C(=O)O[C@@H]1C has PAMPA 2 × 10^-6 cm/s.
CC(=O)N1CCC[C@@H]1C(=O)N(C)[C@@H](CC(C)C)C(=O)N[C@@H]1C(=O)N[C@@H](CC(C)C)C(=O)N(C)[C@@H](CC(C)C)C(=O)N(C)[C@H](CC(C)C)C(=O)N[C@@H](C)C(=O)N[C@H](CC(C)C)C(=O)N2CCC[C@H]2C(=O)O[C@@H]1C has PAMPA 0.25 × 10^-6 cm/s.
CC(=O)N1CCC[C@H]1C(=O)N(C)[C@H](CC(C)C)C(=O)N[C@@H]1C(=O)N[C@H](CC(C)C)C(=O)N[C@H](CC(C)C)C(=O)N(C)[C@@H](CC(C)C)C(=O)N(C)[C@@H](C)C(=O)N[C@@H](CC(C)C)C(=O)N2CCC[C@H]2C(=O)O[C@@H]1C has PAMPA 2.8 × 10^-6 cm/s.
CC(=O)N1CCC[C@H]1C(=O)N(C)[C@@H](CC(C)C)C(=O)N[C@@H]1C(=O)N(C)[C@@H](CC(C)C)C(=O)N(C)[C@H](CC(C)C)C(=O)N(C)[C@H](CC(C)C)C(=O)N(C)[C@@H](C)C(=O)N[C@H](CC(C)C)C(=O)N2CCC[C@@H]2C(=O)O[C@@H]1C has PAMPA 1.4 × 10^-6 cm/s.

2 of these entries, quoted again:

| SMILES | PAMPA (10^-6 cm/s) |
|---|---|
| CC(=O)N1CCC[C@@H]1C(=O)N(C)[C@@H](CC(C)C)C(=O)N[C@@H]1C(=O)N[C@@H](CC(C)C)C(=O)N(C)[C@@H](CC(C)C)C(=O)N(C)[C@H](CC(C)C)C(=O)N[C@@H](C)C(=O)N[C@H](CC(C)C)C(=O)N2CCC[C@H]2C(=O)O[C@@H]1C | 0.25 |
| CC(=O)N1CCC[C@H]1C(=O)N(C)[C@@H](CC(C)C)C(=O)N[C@@H]1C(=O)N[C@H](CC(C)C)C(=O)N[C@@H](CC(C)C)C(=O)N[C@H](CC(C)C)C(=O)N[C@@H](C)C(=O)N[C@H](CC(C)C)C(=O)N2CCC[C@H]2C(=O)O[C@@H]1C | 0.21 |

Collected by the curators of CycPeptMPDB (Li et al. 2023) from Kelly et al. 2021, doi:10.1021/jacs.0c06115.